# miR-21 reporter: miR-21 reporter, rising signal; HeLa miR-21 FLuc reporter, luciferase, 48 h; Potency, µM (highest dose often 38.3 µM), for the others: top-dose reporter change, positive = more light; 340,000 tested, under 10 active; AID 2288; active = well fitted rising curve with a large enough effect; inconclusive = small, poorly fitted or top-dose-only effect; inactive = no such curve, though single readings can be large or run the other way;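 further: % of control where 0% means no effect; miR-21 action dims this reporter so a rising signal means less miR-21 action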
#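 HeLa cells endogenously expressing miR-21, stably carrying CMV-driven firefly luciferase with a downstream miR-21 binding site, 2000 cells/well. Titrations up to approximately 40 uM, 48 hours; luciferase luminescence read.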
# uPA generation: cell surface uPA generation inhibition | cell surface uPA generation assay, qHTS | AID 540303 | actives 0.31% (n = 330,000) | Potency, µM (highest dose often 38.3 µM), for the others: at the highest dose activity change, negative = inhibition, actives largely listed as inhibitors; active = well fitted inhibition curve with a large enough effect; inconclusive = small, poorly fitted or top-dose-only effect; inactive = no such curve, though single readings can be large or run the other way; tested in mouse RAW 264.7 cells; also: potency is read from the fitted curve at half-maximal effect; % is scaled to controls: 0 for no effect and ±100 for the full control effect; nearly all actives have a fitted effect of over 55% in size
# TDP1 block: inhibitors of human tyrosyl-DNA phosphodiesterase TDP1; Q9NUW8; recombinant TDP1, AlphaScreen DNA substrate cleavage; Potency, µM (highest dose often 130 µM), for the others: at the top dose activity change, negative = inhibition, actives largely listed as inhibitors; actives 0.28% (n = 350,000); AID 485290; also: potency is read from the fitted curve at half-maximal effect; % is scaled to controls: 0 for no effect and ±100 for the full control effect; nearly all actives have a fitted effect of over 40% in size
#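 Recombinant E. coli-expressed Tdp1 (1 nM) preincubated with compound 15 min at RT, then 5'-biotin/3'-phosphotyrosine-FITC DNA substrate (15 nM) added for 5 min. AlphaScreen beads (10 ug/ml) added, 10 min RT; tyrosine-FITC cleavage read as signal loss.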
# TDP1 cell noCPT: qHTS for Inhibitors of human tyrosyl-DNA phosphodiesterase 1 (TDP1): qHTS in cells in absence of CPT. AID 686978, 2013. Potency, µM (highest dose often 46.2 µM), for inactives: at the highest dose activity change, negative = growth inhibition, actives largely listed as inhibitors. DT40 Tdp1-/- hTDP1 cells, no CPT, ATP luminescence, 48 h. actives 15% (n = 420,000); also: potency is read from the fitted curve at half-maximal effect; % is scaled to controls: 0 for no effect and ±100 for the full control effect; nearly all actives have a fitted effect of over 55% in size
#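 Readout: luminescence from CellTiter-Glo after 30 min in the dark at RT. Cells: DT40 Tdp1-/- with stable hTDP1, 400/well. Exposure: compounds alone, ≥48 hr, 37 °C.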
# TDP1 cell CPT: DT40-hTDP1 cell growth loss with CPT; chicken DT40 Tdp1-/-;hTDP1 cells + 20 nM CPT, ATP luminescence, 48 h; Potency, µM (titrated, usually from 46.2 µM), for the others: at the highest dose activity change, negative = growth inhibition, most hits filed as inhibitors; actives 12% (n = 420,000); AID 686979; also: potency is read from the fitted curve at half-maximal effect; % is scaled to controls: 0 for no effect and ±100 for the full control effect; nearly all actives have a fitted effect of over 55% in size
#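 Chicken DT40 Tdp1-/- cells stably complemented with human TDP1 were seeded at 400 cells/well in medium containing 20 nM camptothecin, exposed to pin-transferred compounds, and grown at 37 °C for at least 48 hr. Viability was read as ATP luminescence.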
# * hit, by the source's call; ? = inconclusive; · = no result. The list is not random: actives were taken first. Their share in the collection is about 16%. Unless noted, calls follow the shape of the dose curve; as a rule, active = well fitted curve in the direction sought with a large enough effect; inconclusive = small, poorly fitted or top-dose-only effect, or another doubt; inactive = no such curve, though single readings can be large; an effect the other way counts as inactive or inconclusive.
cpd | SMILES | miR-21 reporter | uPA generation | TDP1 block
1 | O=[N+]([O-])c1ccc(N2CCc3ccccc3C2)cc1 | -34% | -11% | ·
2 | O=C1CCCN1CCCN1CC(C(=O)N(CCO)Cc2ccccc2)CCC1=O (configuration not stated) | -2% | -1% | 3%
3 | C=CCOCC(O)Cn1c(N2CCCC2)nc2c1c(=O)n(C)c(=O)n2C (configuration not stated) | -6% | 9% | ·
4 | COc1ccc(-c2nc3c(c(SCC(=O)N4CCCC4)n2)COC(C)(C)C3)cc1 | · | 0% | ·
5 | O=C1C2CCCCN2C(=O)N1CCN1CCN(c2ccc([N+](=O)[O-])cc2)CC1 (configuration not stated) | 7% | 3% | 2%
6 | O=C(CSc1ccccc1C(=O)N1CCN(c2ccccc2)CC1)N1CCCC1 | · | 3% | 1%
7 | O=C(Cc1ccccc1)N1CCN(c2ccc([N+](=O)[O-])cc2)CC1 | 11% | -5% | ·
8 | O=C(CSc1ccccc1C(=O)N1CCN(c2ccc([N+](=O)[O-])cc2)CC1)N1CCCC1 | · | -8% | 1%
9 | O=C(NCCN1CCN(Cc2ccc([N+](=O)[O-])cc2)CC1)C(=O)Nc1ccccc1 | -3% | 14% | -3%
10 | O=C(Cc1ccc(F)cc1)N1CCN(c2ccc([N+](=O)[O-])cc2)CC1 | 23% | -6% | ·
11 | O=C(CCCN1C(=O)C2CCCCN2C1=O)N1CCN(c2ccc([N+](=O)[O-])cc2)CC1 (configuration not stated) | 0% | -7% | -1%
12 | O=C(NCCN1CCN(c2ccc([N+](=O)[O-])cc2)CC1)NCc1ccccc1 | 26% | -16% | 7%
13 | Cc1cccc(N=C2CCCC2C(=O)Nc2cccc(C)c2C)c1C (configuration not stated) | · | -1% | ·
14 | O=C(CNC(=O)c1ccccc1)NCCO | 0% | 0% | 6%
15 | O=C(NCCN1CCc2ccccc2C1)Nc1ccc([N+](=O)[O-])cc1 | 8% | 6% | 2%

cpd | TDP1 cell noCPT | TDP1 cell CPT
1 | 18µM* | ?
2 | 10% | 2%
3 | -3% | -4%
4 | -19% | -29%
5 | ? | -24%
6 | -23% | ?
7 | ? | ?
8 | 15µM* | 12µM*
9 | -8% | -17%
10 | ? | 21µM*
11 | 23µM* | ?
12 | 8.2µM* | ?
13 | -9% | -27%
14 | 0% | 26%
15 | 23µM* | ?

# Further records
cpd | SMILES | miR-21 reporter | uPA generation | TDP1 block
16 | O=C(CCCSc1nc2ccccc2[nH]1)N1CCN(c2ccc([N+](=O)[O-])cc2)CC1 | -1% | -1% | 3%
17 | O=C(CCc1ccccc1)N1CCN(c2ccc([N+](=O)[O-])cc2)CC1 | 9% | 5% | 9%
18 | O=C(Nc1ccccc1)N(CCc1ccncc1)C1CCCCC1 | · | -2% | ·
19 | O=C1Cc2ccccc2C(c2ccc(Br)cc2)N1 (configuration not stated) | -1% | -2% | 6%
20 | CCN(CC)S(=O)(=O)c1ccc(NC(=O)[C@H](CCSC)N2Cc3ccccc3C2=O)cc1 | 14% | · | 9%
21 | CCN(CC)S(=O)(=O)c1ccc(NC(=O)[C@H](CSCc2ccccc2)N2Cc3ccccc3C2=O)cc1 | 3% | · | 2%
22 | COc1cccc(NC(=O)c2c(N3CCCC3=O)c3cc(C)ccc3n2C)c1 | 15% | · | -3%
23 | CCc1cccc(C)c1Nc1c(-c2ccccc2)nc2sccn12 | -1% | · | 10%
24 | Cc1ccc(-c2nc3sccn3c2Nc2ccccc2C)cc1 | 1% | · | 10%
25 | CCc1cccc(C)c1NC(=O)CSc1n[nH]c(-c2ccccc2)n1 | 13% | · | 5%
26 | Cc1ccccc1NC(=O)CSCc1cc(=O)n2ccsc2n1 | -1% | 2% | 1%
27 | COn1c(-c2ccc(C)cc2)nc2ncccc21 | -9% | -4% | ·
28 | CC(=O)Nc1ccc(-c2ccnc3c2CC(C)(C(=O)NCc2ccco2)O3)cc1 (configuration not stated) | · | · | ·
29 | CNC(=O)C1(C)Cc2c(-c3ccc(NC(C)=O)cc3)ccnc2O1 (configuration not stated) | · | · | ·
30 | CN(C)c1ccc(-c2ccnc3c2CC(C)(C(=O)NCc2ccco2)O3)cc1 (configuration not stated) | · | · | ·

cpd | TDP1 cell noCPT | TDP1 cell CPT
16 | 8.2µM* | 10µM*
17 | 23µM* | ?
18 | -3% | -15%
19 | ? | ?
20 | 23µM* | ?
21 | ? | 21µM*
22 | · | ·
23 | 18µM* | ?
24 | 23µM* | ?
25 | ? | ?
26 | 13% | 3%
27 | -15% | 25%
28 | 1.2µM* | 1.5µM*
29 | 5% | 5%
30 | 6.5µM* | 4.1µM*

# Continuation.
cpd | SMILES | miR-21 reporter | uPA generation | TDP1 block
31 | CN(C)c1ccc(-c2ccnc3c2CC(C)(C(=O)NCCC(F)(F)F)O3)cc1 (configuration not stated) | · | · | ·
32 | CN(C)c1ccc(-c2ccnc3c2CC(C)(C(=O)NCc2ccc(F)c(F)c2)O3)cc1 (configuration not stated) | · | · | ·
33 | CCOc1ccc2nc(NC(=O)C3CCN(c4cnccn4)CC3)sc2c1 | 23% | -3% | 2%
34 | Oc1cccnc1CN1CCOCC1 | · | -2% | ·
35 | COc1ccc(CN2CCC(=O)N([C@H](CO)Cc3ccccc3)CC2)cc1OC | 0% | 6% | ·
36 | CCc1nc2ccc(C(=O)N3CCN(C)CC3)cn2c1N(CCC(C)C)CCN(C)C | · | · | ·
37 | OC(COc1ccc2ccccc2c1Cl)CN1CCOCC1 (configuration not stated) | -64% | -4% | -2%
38 | CC(=O)OC(C)C1C2=C(C(=O)CC1(C)O)C(=O)c1c(ccc(-c3ccc4c(c3O)C(=O)C3=C(C4=O)C(C(C)OC(C)=O)C(C)(O)CC3=O)c1O)C2=O (configuration not stated) | · | 7% | ·
39 | O=C(C1=COCCO1)N1CCN(c2nc3ccc([N+](=O)[O-])cc3s2)CC1 | · | 15% | -6%
40 | CC(C)Oc1ccc(CNC(=O)c2ccc3nc(Cc4ccccc4)oc3c2)cc1 | 1% | · | 1%
41 | O=C(NCc1ccncc1)c1ccc2nc(Cc3ccccc3F)oc2c1 | 3% | -8% | 7%
42 | CN(C)c1ccc(CNC(=O)c2ccc3nc(Cc4ccccc4)oc3c2)cc1 | -9% | · | 10%
43 | Cc1cccc(CNC(=O)c2ccc3nc(Cc4ccccc4)oc3c2)c1 | 10% | · | 3%
44 | CC(CNC(=O)c1ccc2nc(Cc3ccccc3)oc2c1)c1ccccc1 (configuration not stated) | 1% | · | 5%
45 | Cc1cc(CNC(=O)c2ccc3nc(Cc4ccccc4F)oc3c2)nn1C | -54% | -7% | 1%
46 | Cc1cc(OCCCC(=O)NNC(=O)c2ccncc2)ccc1Cl | 4% | -2% | 1%

cpd | TDP1 cell noCPT | TDP1 cell CPT
31 | 5.8µM* | 7.3µM*
32 | 9.2µM* | 9.2µM*
33 | ? | ?
34 | 0% | 2%
35 | ? | ?
36 | -17% | 0%
37 | ? | -26%
38 | 1.5µM* | 1.2µM*
39 | 5.2µM* | 9.2µM*
40 | -28% | ?
41 | ? | 26µM*
42 | 21µM* | ?
43 | 23µM* | 21µM*
44 | 16µM* | ?
45 | ? | ?
46 | -1% | -9%

# Along the list, quoted from above.
# Compounds 18–28 in TDP1 cell CPT, in turn: -15%, ?, ?, 21µM*, ·, ?, ?, ?, 3%, 25%, 1.5µM*
# Compounds 18–28 in TDP1 cell noCPT, in turn: -3%, ?, 23µM*, ?, ·, 18µM*, 23µM*, ?, 13%, -15%, 1.2µM*

# Some of the entries above in another layout.
17. O=C(CCc1ccccc1)N1CCN(c2ccc([N+](=O)[O-])cc2)CC1
18. O=C(Nc1ccccc1)N(CCc1ccncc1)C1CCCCC1
19. O=C1Cc2ccccc2C(c2ccc(Br)cc2)N1 (configuration not stated)
assay / compound | 17 | 18 | 19
miR-21 reporter | 9% | · | -1%
uPA generation | 5% | -2% | -2%
TDP1 block | 9% | · | 6%
TDP1 cell noCPT | 23µM* | -3% | ?
TDP1 cell CPT | ? | -15% | ?

# Bioassay records (PubChem BioAssay)
